From patent US20130022673A1, “ENHANCEMENT OF MAGNESIUM UPTAKE IN MAMMALS” (priority 2003, published 2013)

choline citrate
change in magnesium level (in words) (30 day period, no magnesium supplementation): modest but statistically insignificant increase
effect on ionized magnesium levels (in words) (choline citrate alone): does not substantially raise
